Laboratory results reported in patent publication US20160368873A1, “Optically Active Form of Mepenzolate, and Ameliorating Agent for Chronic Obstructive Pulmonary Disease Which Contains Same as Active Ingredient” (LTT BIO-PHARMA CO., LTD., priority 2014, published 2016).

Experiments:
ICR mice [1] = experiment: Effect on methacholine-induced airway constriction (2) (Test Example 3.2); type: in vivo; settings: 3.8 μg/kg via the airway, 1 h before nebulized methacholine, FIG. 7
Protocol: (§1) Increase in airway resistance induced by methacoline was measured.
4 to 6 week old ICR mice were anesthetized with chloral hydrate (500 mg/kg), a tracheostomy was performed, and a metal tube […] in diameter was inserted into the trachea.
The mice were mechanically ventilated at 150 respirations/minute with a displacement per one cycle of 8.7 mL/kg and a positive end-expiratory pressure of 2 to 3 cmH2O.
The mice were exposed to nebulized methacholine (5 mg/kg) for 20 seconds four times at intervals of 40 seconds to induce airway resistance by methacholine, and the airway resistance was measured by a snap shot technique.
(§2) One hour after administration, the mice received five exposures to nebulized methacoline by the above-mentioned method and the airway resistance at the time of each administration was measured.
The data were analyzed by using FlexiVent software.

ICR mice [2] = experiment: Effect on methacholine-induced airway constriction (1) (Test Example 3.1); type: in vivo; settings: 3.75 μg/kg via the airway, 1 h before nebulized methacholine, FIG. 5
Protocol: as §1
4 to 6 week old ICR mice received 1 mg/mL methacoline by nebulization over 20 seconds and this was repeated five times. After each administration of methacoline was completed, the airway resistance was measured by a snap shot technique. All the data were analyzed by using FlexiVent software.
as §2

## C[N+]1(C)CCC[C@@H](OC(=O)C(O)(c2ccccc2)c2ccccc2)C1.[Br-] (racemic) [racemate, mepenzolate bromide, reference compound]
ICR mice [1]
  Effect of suppressing airway resistance (methacholine-induced), low dose: significant effect of suppressing airway resistance
ICR mice [2]
  Effect of suppressing airway resistance (methacholine-induced): significant effect of suppressing airway resistance
